Data as given in ChEMBL document CHEMBL1158463 (J Med Chem, 2009).

Tests used:
Homo sapiens [1] = species on record: Homo sapiens; assay: Selectivity for human cloned ORL1 receptor over human cloned mu opioid receptor
Homo sapiens [2] = species on record: Homo sapiens; assay: Selectivity for human cloned ORL1 receptor over human cloned delta opioid receptor
Homo sapiens [3] = species on record: Homo sapiens; assay: Selectivity for human cloned ORL1 receptor over human cloned kappa opioid receptor

Measured: fold change (FC)

CCn1c(=O)n([C@@H]2CCN(CC3CCCCCCC3)C[C@H]2CO)c2ccccc21
600: Homo sapiens [1] | Homo sapiens [2] | Homo sapiens [3]
